# pEC50, pIC50, pKd: −log10 of the molar value.
# Assays:
# cyclophilin A (CYPA) = cyclophilin A (CYPA) (Homo sapiens, UniProt P62937); assay: CYPA-compound binary complex formation by SPR; conditions: read-out: CYPA Binding Affinity
# In short: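 CypA-Avi captured on a Biotin CAPture chip (4 μg/ml), reference flow cell subtracted. Compounds injected as 10-point 2-fold dilutions from 50 μM in HBS-P+ pH7.4 with 2% DMSO; 60 s association and 60 s dissociation, solvent-corrected. Affinity obtained by steady-state fitting.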
# pERK in H358 cells = assay: pERK inhibition in H358 cells; conditions: read-out: Cellular pERK inhibition, 4 hours treatment
# In short: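 Human lung cancer H358 cells in RPMI/10% FBS were exposed to compound or DMSO for 4 h. Fixed and permeabilized cells were stained overnight at 4 C with anti-phospho-ERK1/2 (Thr202/Tyr204). Near-infrared imaging read the pERK signal at 800 nm, with DRAQ5 at 700 nm.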
# [1] = target: BRAF-GTP-KRAS-G12C complex (Homo sapiens, UniProt P01116+P62937, G12C); assay: KRAS-BRAF complex disruption through competition with CYPA-compound by TR-FRET; conditions: read-out: BRAF-GTP-KRAS-G12C Disruption; biochemical BRAF-KRAS G12C-GTP disruption assay EC50, with CYPA
# In short: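 His6-KRAS G12C-GTP (1-169, 50 nM) with tagless CypA (1-165, 500 nM) was incubated with compound for 3 h at room temperature in pH 7.3 Hepes/NaCl/MgCl2 buffer containing GST-BRAF RBD. Anti-His Eu (10 nM) and anti-GST APC (50 nM) were then added for 1.5 h, and the 665/615 nm TR-FRET ratio was read. EC50 from 4-parameter fit; for specificity, wild-type KRAS replaced G12C, and CypA was omitted to test presenter dependence.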
SMILES,pKd (cyclophilin A (CYPA)),pIC50 (pERK in H358 cells),pEC50 [1]
CC[C@H](C)[C@@H](C(=O)N[C@H]1Cc2cc(O)cc(c2)-c2ccc3c(c2)c(cn3C(C)(C)C#N)CC(C)(C)COC(=O)[C@@H]2CCCN(N2)C1=O)N(C)C(=O)[C@H]1CCN(C(=O)[C@@H](C)Cl)C1,> 5.30,> 6.00,5.30 to 6.30
"C=CC(=O)N1CC[C@H](C(=O)N(C)[C@H](C(=O)N[C@H]2Cc3cc(O)cc(c3)-c3ccc4c(C(C)(C#N)CC5CCOCC5)cn(c4c3)CC(C)(C)COC(=O)[C@@H]3CCCN(N3)C2=O)C(C)C)C1 (single isomer, unassigned) [362]",4.82 to 5.30,5.00 to 6.00,5.30 to 6.30
C=CC(=O)N1CC[C@H](C(=O)N(C)[C@H](C(=O)N[C@H]2Cc3cc(O)cc(c3)-c3ccc4c(c3)c(c(C#N)n4CCC#N)CC(C)(C)COC(=O)[C@@H]3CCCN(N3)C2=O)C(C)C)C1,4.82 to 5.30,5.00 to 6.00,> 6.30
C=CC(=O)N1CC[C@H](C(=O)N(C)[C@H](C(=O)N[C@H]2Cc3cc(O)cc(c3)-c3ccc4c(c3)N(CC(C)(C)COC(=O)[C@@H]3CCCN(N3)C2=O)CC4(COC)COC)C(C)C)C1,4.82 to 5.30,5.00 to 6.00,5.30 to 6.30
CC(C)[C@@H](C(=O)N[C@H]1Cc2cc(O)cc(c2)-c2ccc3c(-c4ccc(F)cc4C#N)cn(c3c2)CC(C)(C)COC(=O)[C@@H]2CCCN(N2)C1=O)N(C)C(=O)C1CN(C(=O)CCl)C1,4.82 to 5.30,> 6.00,> 6.30
"CC(C)[C@@H](C(=O)N[C@H]1Cc2cc(O)cc(c2)-c2ccc3c(c2)N(C[C@H](C)COC(=O)[C@@H]2CCCN(N2)C1=O)CC3(C)/C=C/C#N)N(C)C(=O)C1CN(C(=O)CCl)C1 (single isomer, unassigned) [223]",> 5.30,5.00 to 6.00,> 6.30
CC(C)[C@@H](C(=O)N[C@H]1Cc2cc(O)cc(c2)-c2ccc3c(C4(C#N)CC4)cn(c3c2)CC(C)(C)COC(=O)[C@@H]2CCCN(N2)C1=O)N(C)C(=O)C1CN(C(=O)CCl)C1,4.82 to 5.30,5.00 to 6.00,> 6.30
CC(C)[C@@H](C(=O)N[C@H]1Cc2cc(O)cc(c2)-c2ccc3c(c2)N(C[C@H](C)COC(=O)[C@@H]2CCCN(N2)C1=O)CC3(C)CC#N)N(C)C(=O)C1CN(C(=O)[C@@H](C)Cl)C1 (stereo partly drawn),> 5.30,< 5.00,< 5.30
CC(C)[C@@H](C(=O)N[C@H]1Cc2cc(O)cc(c2)-c2ccc3c(C(F)(F)F)nn(c3c2)CC(C)(C)COC(=O)[C@@H]2CCCN(N2)C1=O)N(C)C(=O)C1CN(C(=O)CCl)C1,< 4.82,> 6.00,> 6.30
CC(C)[C@@H](C(=O)N[C@H]1Cc2cc(O)cc(c2)-c2ccc3c(-c4cccc(CC#N)c4)cn(c3c2)CC(C)(C)COC(=O)[C@@H]2CCCN(N2)C1=O)N(C)C(=O)C1CN(C(=O)CCl)C1,4.82 to 5.30,5.00 to 6.00,> 6.30
CC#CC(=O)N1CCC(C(=O)N(C)[C@H](C(=O)N[C@H]2Cc3cc(O)cc(c3)-c3ccc4c(C(C)(C)C#N)cn(c4c3)CC(C)(C)COC(=O)[C@@H]3CCCN(N3)C2=O)C(C)C)CC1,4.82 to 5.30,5.00 to 6.00,5.30 to 6.30
COCc1cccc(-c2cn3c4cc(ccc24)-c2cc(O)cc(c2)C[C@H](NC(=O)[C@H](C(C)C)N(C)C(=O)C2CN(C(=O)CCl)C2)C(=O)N2CCC[C@H](N2)C(=O)OCC(C)(C)C3)c1,4.82 to 5.30,5.00 to 6.00,> 6.30
C=CC(=O)N1CC[C@H](C(=O)N(C)[C@H](C(=O)N[C@H]2Cc3cc(O)cc(c3)-c3ccc4c(c3)N(CC(C)(C)COC(=O)[C@@H]3CCCN(N3)C2=O)CC42COc3ncccc32)C(C)C)C1 (stereo partly drawn),4.82 to 5.30,5.00 to 6.00,5.30 to 6.30
COc1ccc(C#N)c(-n2cc3c4cc(ccc42)-c2cc(O)cc(c2)C[C@H](NC(=O)[C@H](C(C)C)N(C)C(=O)C2CN(C(=O)[C@@H](C)Cl)C2)C(=O)N2CCC[C@H](N2)C(=O)OCC(C)C3)c1 (stereo partly drawn),> 5.30,< 5.00,< 5.30
Cc1nc2ccc3c(F)c2n1CC(C)(C)COC(=O)[C@@H]1CCCN(N1)C(=O)[C@@H](NC(=O)[C@H](C(C)C)N(C)C(=O)C1CN(C(=O)CCl)C1)Cc1cc(O)cc-3c1,< 4.82,< 5.00,> 6.30
CC(C)[C@@H](C(=O)N[C@H]1Cc2cc(O)cc(c2)-c2ccc3cc(-c4ccccc4)n(c3c2)C[C@H](C)COC(=O)[C@@H]2CCCN(N2)C1=O)N(C)C(=O)C1CN(C(=O)CCl)C1,< 4.82,< 5.00,> 6.30
COc1ccccc1-c1c(C#N)c2ccc3cc2n1C[C@H](C)COC(=O)[C@@H]1CCCN(N1)C(=O)[C@@H](NC(=O)[C@H](C(C)C)N(C)C(=O)C1CN(C(=O)CCl)C1)Cc1cc(O)cc-3c1,< 4.82,> 6.00,> 6.30
